Reference: PMC3639985, “Differential Ligand Binding Affinities of Human Estrogen Receptor-α Isoforms” (PLoS ONE, 2013)

Protein sequences, listed by entry. Tags and fused reporters are not part of them. Residues count along the entry.
UniProt P03372, whole entry: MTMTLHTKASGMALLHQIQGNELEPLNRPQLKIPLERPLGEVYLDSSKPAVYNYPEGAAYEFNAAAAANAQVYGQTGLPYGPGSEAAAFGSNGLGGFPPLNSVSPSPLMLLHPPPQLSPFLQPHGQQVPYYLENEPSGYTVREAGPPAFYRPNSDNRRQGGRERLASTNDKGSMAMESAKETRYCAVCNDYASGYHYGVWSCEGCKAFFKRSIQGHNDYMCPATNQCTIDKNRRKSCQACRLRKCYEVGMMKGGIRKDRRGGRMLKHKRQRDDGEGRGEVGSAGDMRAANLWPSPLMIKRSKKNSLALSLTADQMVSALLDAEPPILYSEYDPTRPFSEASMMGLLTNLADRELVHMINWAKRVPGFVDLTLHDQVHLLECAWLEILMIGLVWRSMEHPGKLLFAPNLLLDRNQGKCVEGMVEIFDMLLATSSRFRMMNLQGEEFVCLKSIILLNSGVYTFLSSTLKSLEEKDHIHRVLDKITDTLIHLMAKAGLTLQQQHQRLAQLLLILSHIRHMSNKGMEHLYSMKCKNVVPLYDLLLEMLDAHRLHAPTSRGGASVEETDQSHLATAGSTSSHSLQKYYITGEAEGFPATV
UniProt P03372, 174-595: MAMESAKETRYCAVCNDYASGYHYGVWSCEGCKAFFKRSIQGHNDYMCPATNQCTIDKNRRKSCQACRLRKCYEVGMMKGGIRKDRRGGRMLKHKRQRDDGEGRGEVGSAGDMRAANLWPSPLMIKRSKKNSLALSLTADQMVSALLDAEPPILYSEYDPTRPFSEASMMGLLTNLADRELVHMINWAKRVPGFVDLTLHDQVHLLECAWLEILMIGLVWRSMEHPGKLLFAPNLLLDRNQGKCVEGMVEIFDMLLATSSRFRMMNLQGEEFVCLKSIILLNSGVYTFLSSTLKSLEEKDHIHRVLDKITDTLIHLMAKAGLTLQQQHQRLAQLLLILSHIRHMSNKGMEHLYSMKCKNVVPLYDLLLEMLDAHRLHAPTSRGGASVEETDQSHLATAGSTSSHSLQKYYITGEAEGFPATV

Tests used:
human ER66 = human ER66 (Homo sapiens, UniProt P03372); assay: Competitive [3H]-17β-estradiol ligand binding assay, ER66
human ER46 = human ER46 (Homo sapiens, UniProt P03372); assay: Competitive [3H]-17β-estradiol ligand binding assay, ER46; conditions: ratio of IC50 values of 17β-estradiol and compound; 17β-estradiol set at 100

In the case of CC(=O)c1ccc2c(c1)C1C=CCC1C(c1cc3c(cc1Br)OCO3)N2 (stereo not drawn), the “RBA ER66” value (human ER66) is reported as 0.007, the IC50 (human ER66; read-out: IC50 ER66) is reported as 540 nM and the “RBA ER46” value (human ER46) is reported as 0.003.
